Here are results for one substance from patent publication US7846434B2, “Materials and methods for improved immunoglycoproteins” (Trubion Pharmaceuticals, Inc., priority 2006, dated 2010).

The test concerns Ramos B cells. The test is described as follows: CDC, Ramos B cells with human serum, propidium iodide. Format: cell-based. To be noted: TRU-015 from CHO cells treated with 30 μg/ml castanospermine. The protocol:
To determine the CDC activity of TRU-016 purified protein produced according to Example 2, Ramos B cells were suspended in Iscoves (Gibco/Invitrogen, Grand Island, N.Y.) at 5×10^5 cells/well in 75 μl. TRU-016 (75 μl) were added to the cells at twice the concentrations indicated. Binding reactions were allowed to proceed for 45 minutes prior to centrifugation and washing in serum-free Iscoves. Cells were resuspended in Iscoves with human serum (containing complement) at various concentrations. The cells were incubated 60 minutes at 37° C. Cells were washed by centrifugation and resuspended in staining media with 0.5 μg/ml propidium iodide. Samples were incubated 15 minutes at room temperature in the dark prior to analysis by flow cytometry using a FACsCalibur and CellQuest software (Becton Dickinson).

With “TRU-015: recombinant single chain protein (SMIP) that binds to the CD20 antigen; SEQ ID NO: 4”, the “CDC versus protein produced by untreated CHO cells” value is “similar”.
